According to US20040029178A1, “Novel g protein-coupled receptor proteins and dnas thereof” (priority 2000, published 2004):

Assays:
TGR26 [1] = target: T1, TGR26 (Rattus norvegicus, UniProt Q56UD9); experiment: Inhibition of intracellular cAMP production using TGR26 expressing CHO cells; assay type: cell-based; details: 2 μM forskolin, various concentrations
T1 construct: expressed in transfected cells; whole cells in A1, membrane fraction in A2 and A3
T1 sequence (Q56UD9 1-329): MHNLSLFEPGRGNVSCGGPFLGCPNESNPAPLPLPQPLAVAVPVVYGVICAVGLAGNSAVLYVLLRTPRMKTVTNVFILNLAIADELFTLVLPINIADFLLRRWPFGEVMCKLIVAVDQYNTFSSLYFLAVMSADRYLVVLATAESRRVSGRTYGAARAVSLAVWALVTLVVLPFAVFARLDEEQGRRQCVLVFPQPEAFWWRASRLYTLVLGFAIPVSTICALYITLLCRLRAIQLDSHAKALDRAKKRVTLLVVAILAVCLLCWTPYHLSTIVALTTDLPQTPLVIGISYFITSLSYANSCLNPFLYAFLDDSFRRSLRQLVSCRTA
Method: TGR26 expressing CHO cells prepared in Example 3 were seeded on 24-well plate at 5×10^4 cells/well and cultivated for 48 hours. The cells were washed with MEMα buffer (pH 7.4) containing 0.2 mM 3-isobutyl-methylxanthine, 0.05% BSA (bovine serum albumine) and 20 mM HEPES [hereafter, MEMα buffer (pH 7.4) containing 0.2 mM 3-isobutyl-methylxanthine, 0.05% BSA (bovine serum albumine) and 20 mM HEPES may be referred to as reaction buffer]. Then, 0.5 ml of the reaction buffer was added to the cells and the suspension was incubated for 30 minutes in the incubator. […] The cAMP level in the extract was measured using the cAMP EIA Kit (Amersham Pharmacia Biotech).
The human homologue of GPR8 ligand peptide consisting of 23 residues represented by […], which was obtained in Reference Example 12 (hereafter, sometimes referred to as hGPR8L (1-23)), or the human homologue of GPR8 ligand peptide consisting of 30 residues represented by […], which was obtained in Reference Example 13 (hereafter, sometimes referred to as hGPR8L (1-30)) was administered at various concentrations to […] TGR26 expressing CHO cells by the method described in Example 4, and an inhibiting activity of intracellular cAMP production was measured. […]

TGR26 [2] = target: T1, TGR26; experiment: GTPγS binding activity using a membrane fraction of TGR26 expressing CHO cells; assay type: biochemical; details: various concentrations
Method: Promoting activity for [^35S]-guanosine 5′-(γ-thio) triphosphate (GTPγS) binding to a membrane fraction of TGR26 expressing cells was assayed in accordance with the following method.
To 1×10^8 of TGR26 expressing CHO cells, 10 ml of homogenating buffer (10 mM NaHCO3, 5 mM EDTA, 0.5 mM PMSF (phenylmethylsulfonyl fluoride), 1 μg/ml Pepstatin, 4 μg/ml E-64, 20 μg/ml Leupeptin) was added, and the cells were disrupted using Polytron (12,000 rpm, 1 minute). Supernatant was obtained from the disrupted cell suspension by centrifugation (1,000 g, 15 minutes). In addition, the supernatant was ultracentrifuged (Beckman Type 30 rotor, 30,000 rpm, 1 hour), and precipitate obtained was kept as a membrane fraction of TGR26 expressing CHO cells.
The membrane fraction of TGR26 expressing CHO cells was diluted with membrane dilution buffer (50 mM Tris HCl buffer (pH 7.4), 5 mM MgCl2, 150 mM NaCl, 1 μM GDP, 0.1% BSA) to prepare a cell membrane fraction solution for assay at 30 μg/ml of protein concentration. To 200 μl of membrane fraction solution for assay, 2 μl of 50 nM [^35S]-guanosine 5′-(γ-thio) triphosphate (NEN) and 2 μl of sample/DMSO solution having an appropriate concentration were added. Then the mixture was incubated at 25° C. for one hour. […] Finally, a radioactivity on the filter was determined by liquid scintillation counter. […]

| Compound | inhibiting activity of intracellular cAMP production (TGR26 [1]) | promoting activity of GTPγS binding (TGR26 [2]) |
| --- | --- | --- |
| CSCC[C@H](NC(=O)[C@H](CC(C)C)NC(=O)[C@H](CC(C)C)NC(=O)CNC(=O)[C@H](C)NC(=O)[C@H](C)NC(=O)[C@H](CCCNC(=N)N)NC(=O)CNC(=O)[C@@H](NC(=O)[C@@H](NC(=O)[C@H](Cc1c[nH]cn1)NC(=O)[C@H](Cc1ccc(O)cc1)NC(=O)[C@H](CCCNC(=N)N)NC(=O)[C@@H]1CCCN1C(=O)[C@H](CO)NC(=O)[C@H](C)NC(=O)[C@@H](NC(=O)[C@H](Cc1c[nH]cn1)NC(=O)[C@H](CCCCN)NC(=O)[C@H](Cc1ccc(O)cc1)NC(=O)[C@@H](N)Cc1c[nH]c2ccccc12)C(C)C)[C@@H](C)O)C(C)C)C(=O)NCC(=O)N[C@@H](CC(C)C)C(=O)O [hGPR8L (1-23)] | inhibited intracellular cAMP production of TGR26 expressing CHO cells depending on the concentration | promoted GTPγS binding of TGR26 expressing CHO cells depending on the concentration |
| CSCC[C@H](NC(=O)[C@H](CC(C)C)NC(=O)[C@H](CC(C)C)NC(=O)CNC(=O)[C@H](C)NC(=O)[C@H](C)NC(=O)[C@H](CCCNC(=N)N)NC(=O)CNC(=O)[C@@H](NC(=O)[C@@H](NC(=O)[C@H](Cc1c[nH]cn1)NC(=O)[C@H](Cc1ccc(O)cc1)NC(=O)[C@H](CCCNC(=N)N)NC(=O)[C@@H]1CCCN1C(=O)[C@H](CO)NC(=O)[C@H](C)NC(=O)[C@@H](NC(=O)[C@H](Cc1c[nH]cn1)NC(=O)[C@H](CCCCN)NC(=O)[C@H](Cc1ccc(O)cc1)NC(=O)[C@@H](N)Cc1c[nH]c2ccccc12)C(C)C)[C@@H](C)O)C(C)C)C(=O)NCC(=O)N[C@@H](CC(C)C)C(=O)N[C@@H](CCCNC(=N)N)C(=O)N[C@@H](CCCNC(=N)N)C(=O)N[C@@H](CO)C(=O)N1CCC[C@H]1C(=O)N[C@@H](Cc1ccc(O)cc1)C(=O)N[C@@H](CC(C)C)C(=O)N[C@@H](Cc1c[nH]c2ccccc12)C(=O)O [hGPR8L (1-30)] | inhibited intracellular cAMP production of TGR26 expressing CHO cells depending on the concentration | promoted GTPγS binding of TGR26 expressing CHO cells depending on the concentration |
